Our source for the outcome values is PubChem BioAssay AID588676 (Johns Hopkins Ion Channel Center, 2011).

Amino acid sequences for entries named in this document (tags omitted).
UniProt Q96LB2, whole entry: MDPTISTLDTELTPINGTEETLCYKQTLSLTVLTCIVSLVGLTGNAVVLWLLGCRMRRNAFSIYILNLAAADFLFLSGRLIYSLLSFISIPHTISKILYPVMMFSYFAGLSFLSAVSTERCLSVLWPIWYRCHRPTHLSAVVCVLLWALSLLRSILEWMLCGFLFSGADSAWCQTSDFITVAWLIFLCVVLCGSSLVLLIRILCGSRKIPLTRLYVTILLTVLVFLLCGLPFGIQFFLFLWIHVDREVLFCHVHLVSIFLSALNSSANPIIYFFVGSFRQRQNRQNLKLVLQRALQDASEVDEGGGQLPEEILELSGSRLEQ

The list shows a part of the results, in another mix than the full data. The source made the active and inactive calls.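 Rule for the calls: active = calcium-response B-score plate-corrected more than 3 library SD below zero, starting fluorescence within 5 deviations, no agonist response on first addition; inactive = the rest.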

The target in the experiment is Mas-related G-protein coupled receptor member X1 (Homo sapiens) (UniProt Q96LB2). As to the kind of experiment: blockade of BAM8-22-evoked MrgX1 calcium response – HEK293 cells, Fluo-4 calcium flux, primary screen (AID 588676). Particulars: Fluo-4, BAM8-22 antagonism, at 10 µM. On the technique in general: Calcium assays in cells follow changes in intracellular calcium, usually with a dye or a luminescent sensor.
For `CCN(CC)CCCOC(=O)C(O)(c1ccccc1)c1ccccc1`, the result was inactive.

`Cc1cc(=O)[nH]c(N[N+](=O)[O-])n1`: the outcome was inactive.

Consider `O=C(OC1CN2CCC1CC2)C12CC3CC(CC(C3)C1)C2` (stereo not drawn), for which the result was inactive.

For `Cc1c2c(nc3ccccc13)SC(C(Cl)Cl)C2` (stereo not drawn), the outcome was inactive.

`COc1cc(I)ccc1[As](=O)(O)O`: the result was inactive.

Take `COc1ccc2nc(NP(=O)(c3ccccc3)c3ccccc3)sc2c1`: the outcome was inactive.

For `COc1ccc(N/C(=N/P(=O)(N2CCOCC2)N2CCOCC2)N2CCOCC2)cc1`, the result was inactive.

In the case of `O=[As](O)(c1ccc(O)cc1)c1ccccc1O`, the result was inactive.

Take `C[As](=O)(O)c1cccc(C(=O)O)c1`: the result was inactive.

With `O=[N+]([O-])c1cc([N+](=O)[O-])c(Nc2cccnc2)c([N+](=O)[O-])c1`, the result was inactive.

In the case of `O=[N+]([O-])c1ccc2c(c1)C=Nc1ccccc1O2`, the outcome was inactive.

Consider `Cc1ccc2nc3c(c(C)c2c1)CC(C(Cl)Cl)S3` (stereo not drawn), for which the result was inactive.

Regarding `Cc1cccc(C)c1OP(C)(N)=O` (stereo not drawn), the result was inactive.

Consider `Cc1ccc(OP(=O)(Nc2ccc([N+](=O)[O-])cn2)Oc2ccc(C)cc2)cc1`, for which the outcome was inactive.

Turning to `CC(C)(C)c1ccc(OP(C)(=O)Nc2ccc(SC(F)(F)F)cc2)cc1` (stereo not drawn), the outcome was inactive.

In the case of `CC(C)c1ccc(OP(=O)(Nc2ccccn2)Oc2ccccc2F)cc1` (stereo not drawn), the result was inactive.

`Cc1ccc(NP(C)(=O)Oc2ccccc2)c(C)c1` (stereo not drawn): the outcome was inactive.

With `COc1ccccc1OP(C)(=O)Nc1ccc(C)cc1` (stereo not drawn), the outcome was inactive.

As for `ClCCSc1nnc(-c2cccnc2)o1`, the outcome was inactive.

Consider `CCOC(=O)c1ccc(NP(C)(=O)Oc2ccccc2)cc1` (stereo not drawn), for which the result was inactive.

As to `Cc1cc(C)cc(OP(C)(N)=O)c1` (stereo not drawn), the result was inactive.

For `COc1ccc(OP(C)(=O)Nc2cccc(F)c2)cc1` (stereo not drawn), the outcome was inactive.

On to `O=[N+]([O-])c1cc([N+](=O)[O-])c(-c2ccn[nH]2)s1`, for which the outcome was inactive.

For `CC(C)NC(=O)NP(=O)(Oc1ccccc1)Oc1ccccc1`, the outcome was inactive.

As to `COc1ccccc1OP(C)(=O)Nc1cc(Cl)ccc1C` (stereo not drawn), the outcome was inactive.

For `CCN(CC)C(=S)SC(NC=O)C(Cl)(Cl)Cl` (stereo not drawn), the result was inactive.

On to `CCOC(=O)Nc1ccc([As](=O)(O)O)c(O)c1`, for which the outcome was inactive.

`Cc1cc(SC(NC(=O)c2ccccc2)C(Cl)(Cl)Cl)nc(C(C)C)n1` (stereo not drawn): the result was inactive.

Take `CCOC(=O)Nc1cccc([As](=O)(O)O)c1`: the result was inactive.

As to `CP(=S)(Nn1cnnc1)Oc1ccccc1` (stereo not drawn), the outcome was inactive.

For the compound `O=[N+]([O-])c1ccc(Nc2ccc(Oc3ccc([N+](=O)[O-])cc3[N+](=O)[O-])cc2)c([N+](=O)[O-])c1`, the outcome was inactive.

With `CP(=O)(Nc1ccccc1Br)Oc1ccccc1` (stereo not drawn), the outcome was inactive.

Turning to `COc1ccccc1OP(C)(=O)Nc1ccccc1` (stereo not drawn), the outcome was inactive.

On to `Cc1cc(SC(NC=O)C(Cl)(Cl)Cl)ncn1` (stereo not drawn), for which the outcome was inactive.

Consider `O=P(Nc1ccccn1)(c1cccc2ccccc12)c1cccc2ccccc12`, for which the outcome was inactive.

For the compound `CP(=O)(Oc1ccccc1)OC(c1ccccc1)C(F)(F)F` (stereo not drawn), the result was inactive.

For the compound `COP1(=S)c2c(C)nn(CCC#N)c2N=C(c2ccc(F)cc2)N1C` (stereo not drawn), the result was inactive.

As for `CP(=O)(Nc1ccc(SC(F)(F)F)cc1)Oc1ccc(Cl)cc1` (stereo not drawn), the outcome was inactive.

Turning to `Cc1cccc(C)c1OP(C)(=O)Nc1ccc(SC(F)(F)F)cc1` (stereo not drawn), the result was inactive.

Turning to `Cc1cc(C)cc(OP(C)(=O)Nc2ccc(SC(F)(F)F)cc2)c1` (stereo not drawn), the outcome was inactive.

On to `O=C(Nc1ccncc1[N+](=O)[O-])c1ccc([N+](=O)[O-])cc1[N+](=O)[O-]`, for which the result was inactive.

Take `CP(=O)(NC(=O)Nc1ccccc1)Oc1ccccc1` (stereo not drawn): the outcome was inactive.

In the case of `O=C(COc1ccccc1)OC1CN2CCC1CC2` (stereo not drawn), the outcome was inactive.

Take `CCc1ccc(OP(C)(=O)N2CCN(c3ccc([N+](=O)[O-])cc3)CC2)cc1` (stereo not drawn): the result was inactive.

As to `O=[N+]([O-])c1cc([N+](=O)[O-])c(O)c([N+](=O)[O-])c1.c1ccc(Oc2ccncc2)cc1`, the outcome was inactive.

`CCOC(=O)c1ccc(NC(=O)C(C)(CCl)SC)cc1` (stereo not drawn): the outcome was inactive.

For the compound `CCOC(=O)c1ccc(NP(C)(=O)Oc2ccc(OC)cc2)cc1` (stereo not drawn), the outcome was inactive.

`CCOP(C)(=S)SCC(=O)NC(C)C(=O)O` (stereo not drawn): the result was inactive.

Turning to `O=C(OC1CN2CCC1CC2)c1cccc([N+](=O)[O-])c1` (stereo not drawn), the outcome was inactive.

With `CP(=O)(Nc1ccccn1)Oc1ccc(Cl)cc1` (stereo not drawn), the result was inactive.

With `CCC(C)N(CC(C)C)C(=S)SC(NC(C)=O)C(Cl)(Cl)Cl` (stereo not drawn), the outcome was inactive.

As to `CCOP(=O)(Nc1ccc(C)cn1)OCC`, the outcome was inactive.

On to `CN(CCCl)Cc1cc(Cl)c(NC2=NCCN2)c(Cl)c1`, for which the outcome was inactive.

For `O=[N+]([O-])c1cc([N+](=O)[O-])c(-n2nnc3ccccc32)c([N+](=O)[O-])c1`, the result was inactive.

In the case of `CCOP(=O)(NC(=NC(C)c1ccccc1)NC(C)c1ccccc1)OCC` (stereo not drawn), the result was inactive.

As for `CCC1=CC2Cc3nc4ccc(Cl)cc4c(N)c3C(C1)C2` (stereo not drawn), the result was inactive.

`O=P1(Nc2ccccn2)COc2ccccc2OC1`: the result was inactive.

Consider `CC(C)(C)C(=O)NC(Sc1ncccn1)C(Cl)(Cl)Cl` (stereo not drawn), for which the result was inactive.

As to `Clc1n[nH]nc1-c1nn[nH][15n]1`, the outcome was inactive.

`COc1ccccc1CNC(=O)COC(=O)C(O)(c1ccccc1)c1ccccc1`: the outcome was inactive.

For the compound `O=[N+]([O-])c1cc([N+](=O)[O-])c(-c2cnn(-c3ccccc3)c2)c([N+](=O)[O-])c1`, the outcome was inactive.

`Cc1nc2ccc3ccccc3c2s1.O=[N+]([O-])c1cc([N+](=O)[O-])c(O)c([N+](=O)[O-])c1`: the result was inactive.

For the compound `CC1(CBr)Cn2c(nc3ccccc3c2=O)S1` (stereo not drawn), the result was inactive.

Consider `O=[As](O)(c1ccccc1Br)c1ccccc1Br`, for which the outcome was inactive.

Turning to `CN(C(=O)Cc1ccc(Cl)c(Cl)c1)[C@@H]1CCCC[C@H]1N1CCCC1`, the outcome was inactive.

On to `CC(C)/C=N\N=C(\N)N[N+](=O)[O-]`, for which the result was inactive.

Take `COc1cc(C2NCCC3(OCCO3)C2(C)C)cc(OC)c1OC.O=[N+]([O-])c1cc([N+](=O)[O-])c(O)c([N+](=O)[O-])c1` (stereo not drawn): the result was inactive.

In the case of `Cc1ccc(C(=O)OC2CN3CCC2CC3)cc1` (stereo not drawn), the result was inactive.

For `CC1CCC(C(C)C)C(OP(=O)(Nc2ccccn2)c2ccccc2)C1` (stereo not drawn), the outcome was inactive.

As to `Cc1nn(-c2ccccc2)c2c1P(=O)(N1CCOCC1)N(C)C(c1ccccc1)=N2` (stereo not drawn), the result was inactive.

Consider `O=C(/C=C/c1ccccc1)OC1CN2CCC1CC2` (stereo not drawn), for which the outcome was inactive.

`CCOC(=O)C(CC)C1=NC(C)(C)Cc2ccccc21.O=[N+]([O-])c1cc([N+](=O)[O-])c(O)c([N+](=O)[O-])c1` (stereo not drawn): the result was inactive.

On to `CC1=C2N=C(C=C3N=C(C(C)=C4[N-][C@@](C)([C@@H]5N=C1[C@](C)(CCC(=O)NC[C@@H](C)OP(=O)([O-])O[C@H]1[C@@H](O)[C@@H](n6cnc7cc(C)c(C)cc76)O[C@@H]1CO)[C@H]5CC(N)=O)[C@@](C)(CC(N)=O)[C@@H]4CCC(N)=O)[C@@](C)(CC(N)=O)[C@@H]3CCC(N)=O)C(C)(C)[C@@H]2CCC(N)=O.[C-]#N.[Co+3]`, for which the result was inactive.

Take `CN(C)C1(CNC(=O)c2ccc(S(C)(=O)=O)cc2)CCCCC1`: the outcome was inactive.

Take `O=[N+]([O-])c1cc([N+](=O)[O-])c(Nc2nnnn2CCO)c([N+](=O)[O-])c1`: the result was inactive.

Take `CN1CCCCC1COC(=O)C1(O)c2ccccc2CCc2ccccc21` (stereo not drawn): the result was inactive.

For `COc1ccccc1OP(C)(=O)Nc1c(C)cccc1C` (stereo not drawn), the result was inactive.

Regarding `O=P1(Nc2ncccn2)COc2ccccc2OC1`, the outcome was inactive.

As to `O=[As](O)(c1cccs1)c1cccs1`, the outcome was inactive.

In the case of `Cc1ccc(OCC(=O)OC2CN3CCC2CC3)cc1` (stereo not drawn), the outcome was inactive.

With `O=P1(Nc2ccc(Br)cn2)COc2ccccc2OC1`, the result was inactive.

For the compound `CCCOc1ccc(NP(C)(=O)Oc2ccc(Cl)cc2)cc1` (stereo not drawn), the result was inactive.

Turning to `CP(=O)(Nc1ccc(SC(F)(F)F)cc1)Oc1ccccc1` (stereo not drawn), the result was inactive.

For `Nc1cccc([As](=O)(O)c2ccccc2)c1`, the outcome was inactive.

`CS(=O)(=O)c1cc([N+](=O)[O-])c2no[n+]([O-])c2c1`: the result was inactive.

On to `O=P(Nc1nccs1)(Oc1ccccc1)Oc1ccccc1`, for which the outcome was inactive.

Take `O=P(Nc1nccs1)(c1ccccc1)c1nc2ccccc2s1` (stereo not drawn): the outcome was inactive.

Regarding `O=C(O)c1cccc(Nc2c([N+](=O)[O-])cc([N+](=O)[O-])cc2[N+](=O)[O-])c1`, the outcome was inactive.

On to `CCOP1(=S)c2c(C)nn(CCC#N)c2N=C(c2ccccc2F)N1C` (stereo not drawn), for which the outcome was inactive.

Consider `O=C(O)COc1ccc([As](=O)(O)O)cc1[N+](=O)[O-]`, for which the outcome was inactive.

Consider `Nc1ccccc1[As](=O)(O)c1ccccc1`, for which the outcome was inactive.

Regarding `NC(=O)Nc1ccc([As](=O)(O)O)cc1`, the outcome was inactive.

For `CC1=NCCc2c1[nH]c1ccccc21.O=[N+]([O-])c1cc([N+](=O)[O-])c(O)c([N+](=O)[O-])c1`, the result was inactive.

In the case of `CN(C(=O)Cc1ccc(Cl)c(Cl)c1)[C@H]1CC[C@@]2(CCCO2)C[C@@H]1N1CCCC1`, the outcome was inactive.

For the compound `O=[N+]([O-])c1ccc2c(c1)nnn2O`, the result was inactive.

As for `CN(C)C(=O)c1cc([N+](=O)[O-])cc2c1-c1c(cc([N+](=O)[O-])cc1[N+](=O)[O-])C2=O`, the result was inactive.

Consider `CCOP1(=S)c2c(C)nn(CCC#N)c2N=C(c2ccc(F)cc2)N1C` (stereo not drawn), for which the result was inactive.

Regarding `CN(C(=O)Cc1ccccc1)[C@@H]1CC[C@]2(CCCO2)C[C@H]1N1CCCC1`, the result was inactive.

Take `N#CCCN(C(=O)COC(=O)C(O)(c1ccccc1)c1ccccc1)c1ccc(F)cc1`: the outcome was inactive.

Take `CS(=O)(=O)c1ccc(Cl)c(NC(=O)COC(=O)C(O)(c2ccccc2)c2ccccc2)c1`: the result was inactive.

For the compound `COc1ccccc1OP(C)(=O)Nc1cccc(Br)c1` (stereo not drawn), the result was inactive.

Take `O=[As](O)(O)c1cccnc1`: the result was inactive.

Take `COc1cc(C(=O)NCC2(N3CCOCC3)CCCCC2)cc(Cl)c1OC(C)C`: the result was inactive.

Regarding `O=C(OC1CN2CCC1CC2)c1ccc(Cl)cc1` (stereo not drawn), the result was inactive.

As to `CCOC(=O)c1ccc(NP(C)(=O)Oc2cc(C)cc(C)c2)cc1` (stereo not drawn), the outcome was inactive.

On to `Cc1cc(C)cc(OP(C)(=O)Nc2ccc(C)cc2C)c1` (stereo not drawn), for which the result was inactive.

`Cc1cccc(OCC(=O)OC2CN3CCC2CC3)c1` (stereo not drawn): the result was inactive.

In the case of `O=[As](O)(c1cccc(O)c1)c1cccc(O)c1`, the outcome was inactive.
